Assays:
[1] = system: acute lethal effects of adriamycin; test: adriamycin acute lethality and its prevention by pretreatment, DBA/2J mice (Example 13)
[2] = system: C57BL/6L mice; test: acute lethality, single i.p. doses of nitrone (Example 9); assay type: in vivo, mouse; settings: single i.p. doses; PBN at 560 mg/kg, Compound I at doses nearly twenty times as great
[3] = as above; assay type: in vivo, mouse; settings: mouse, in vivo, ip
[4] = system: neuron loss following brain ischemia and reperfusion injury; test: neuronal density after 5 min bilateral carotid occlusion, compound i.p. 30 min before ischemia (Example 3); assay type: in vivo, gerbil; settings: low dose levels, such as 3.2 mg/kg

CC(C)(C)[N+]([O-])=Cc1ccc(S(=O)(=O)O)cc1S(=O)(=O)O [Compound I]
shift to the right of the adriamycin lethality dose effect curve ([1]; 100 mg/kg i.p. pretreatment, DBA/2J): 5 fold
shifts in the adriamycin lethality dose effect curve ([1]; pretreatment with 30 and 100 mg/kg): dose related shifts in the adriamycin lethality dose effect curve
toxicity [2]: no toxicity
survival ([3]; 320 mg/kg single i.p. dose): 100%
survival ([3]; 560 mg/kg single i.p. dose): 100%
survival ([3]; 1000 mg/kg single i.p. dose): 100%
survival ([3]; 3000 mg/kg single i.p. dose): 100%
survival ([3]; 10000 mg/kg single i.p. dose): 100%
potency at preventing neuronal loss relative to prior art compounds [4]: 2-3 times
